Experiment [1] deals with T1, Biotin--[acetyl-CoA-carboxylase] ligase (Mycobacterium tuberculosis (strain ATCC 25618 / H37Rv)) (UniProt I6YFP0).
T1 sequence (whole entry): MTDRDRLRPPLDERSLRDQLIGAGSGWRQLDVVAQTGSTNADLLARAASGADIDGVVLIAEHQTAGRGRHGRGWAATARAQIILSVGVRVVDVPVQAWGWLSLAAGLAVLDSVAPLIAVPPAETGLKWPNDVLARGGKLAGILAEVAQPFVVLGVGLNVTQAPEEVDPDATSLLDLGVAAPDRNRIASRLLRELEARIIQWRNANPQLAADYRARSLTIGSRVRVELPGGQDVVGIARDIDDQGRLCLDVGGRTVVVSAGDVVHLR
The experiment in a line: Binding affinity to Mycobacterium tuberculosis BPL assessed as change in gibbs free energy by isothermal titration calorimetry. (In general: ITC needs no label: the signal is the heat of the interaction.)

Experiment [2] has as its target T1, Biotin--[acetyl-CoA-carboxylase] ligase (Mycobacterium tuberculosis (strain ATCC 25618 / H37Rv)). The experiment in a line: Binding affinity to Mycobacterium tuberculosis BPL assessed as change in enthalpy by isothermal titration calorimetry.

As for `Nc1ncnc2c1ncn2[C@@H]1O[C@H](CNS(=O)(=O)[N-]C(=O)NCCC[C@@H]2SC[C@@H]3NC(=O)N[C@@H]32)[C@@H](O)[C@H]1O.[Na+]`, in experiment [1], the deltaG was -46.4 kJ/mol. Moreover, the deltaH in experiment [2] was -48.5 kJ/mol.

The record behind these values is ChEMBL document CHEMBL6153072, “Metabolically Stable Adenylation Inhibitors of Biotin Protein Ligase as Antibacterial Agents” (J Med Chem, 2025).
